This is an account of results in PubChem BioAssay AID588591 (National Center for Advancing Translational Sciences (NCATS), 2011).

By UniProt entry, the sequences of proteins in these tests, tags left out.
UniProt Q9Y253, whole entry: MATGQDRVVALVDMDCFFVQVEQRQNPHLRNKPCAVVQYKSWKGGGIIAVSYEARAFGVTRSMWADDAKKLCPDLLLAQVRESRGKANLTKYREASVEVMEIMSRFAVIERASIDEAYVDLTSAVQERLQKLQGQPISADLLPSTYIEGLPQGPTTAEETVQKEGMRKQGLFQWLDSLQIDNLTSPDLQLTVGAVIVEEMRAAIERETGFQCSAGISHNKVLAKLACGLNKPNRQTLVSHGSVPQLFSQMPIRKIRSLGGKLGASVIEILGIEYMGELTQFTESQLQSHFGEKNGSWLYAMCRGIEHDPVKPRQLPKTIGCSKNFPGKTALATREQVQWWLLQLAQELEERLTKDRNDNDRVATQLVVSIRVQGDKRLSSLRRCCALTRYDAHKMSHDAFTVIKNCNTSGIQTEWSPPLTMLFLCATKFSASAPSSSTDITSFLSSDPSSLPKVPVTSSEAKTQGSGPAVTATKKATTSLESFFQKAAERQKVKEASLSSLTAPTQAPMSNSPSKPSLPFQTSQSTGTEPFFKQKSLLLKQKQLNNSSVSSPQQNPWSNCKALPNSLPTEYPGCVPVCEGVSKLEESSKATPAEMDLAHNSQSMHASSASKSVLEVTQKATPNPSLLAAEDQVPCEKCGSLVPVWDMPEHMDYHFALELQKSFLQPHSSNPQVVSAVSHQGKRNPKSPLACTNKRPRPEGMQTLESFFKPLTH

Values joined by “and” are separate entries in the source; they are usually repeats but may differ in a detail not shown here. Equal entries are not always repeated. The entries are a selection whose mix differs from that of the whole data set. Some tests of the compounds listed are not included; inactive here does not mean inactive elsewhere. Records with an inconclusive call do not appear. Active and inactive are the calls of the source. The call rests on the fitted dose curve; in most records, active means well fitted inhibition curve with a large enough effect; inconclusive means small, poorly fitted or top-dose-only effect, or another doubt; inactive means no such curve, though single readings can be large or run the other way.
On the % scale 0 is the no-effect control and ±100 the full control effect.

For this assay, the target named is DNA polymerase eta (Homo sapiens) (UniProt Q9Y253). As to the kind of experiment: qHTS for Inhibitors of Polymerase Eta. Conditions: recombinant Pol eta, fluorescent DNA replication assay; at 114 µM (top of the series). Background: Quantitative high-throughput screening tests each substance at several concentrations.
As for `COc1ccc(Br)c(C(=O)NCC2(N3CCCCC3)CCCCC2)c1`, the activity change, negative = inhibition is inactive: 1.05%.
The figure for `COc1cc(C(=O)NCC2(N(C)C)CCCCC2)cc(OC)c1OC` is inactive: -16.1%; for `Cc1cccc(C(=O)NCC2(N(C)C)CCCCC2)c1` it is inactive: -16.3%; for `C=C(C)C#CC(O)(C(=O)OC1CCN(C)CC1)c1ccccc1` (stereo unspecified) it is inactive: -3.71%.
Next, `CN(C)c1cccc(C(=O)NCC2(N(C)C)CCCCC2)c1`: inactive: -8.22%; `O=C(OCCN1CCCC1)C(O)(c1ccccc1)c1ccccc1`: inactive: -14.5%; `CC(C)Oc1ccc(C(=O)NCC2(N(C)C)CCCCC2)cc1`: inactive: -3.84% and inactive: -8.32%.
The figure for `O=C(OC1CN2CCC1CC2)C(CO)(c1ccccc1)c1ccccc1` (stereo unspecified) is inactive: -1.79%.
As to `COc1cccc(C(=O)NCC2(N3CCOCC3)CCCCC2)c1`, the activity change, negative = inhibition was inactive: -3.28%.
Next, `CC(C)COc1ccc(C(=O)NCC2(N(C)C)CCCCC2)cc1`: inactive: -3.93%.
`COc1ccc(C(=O)NCC2(N(C)C)CCCCC2)cc1Cl`: the activity change, negative = inhibition was inactive: -5.22%.
With `COc1ccc(Cl)cc1C(=O)NCC1(N(C)C)CCCCC1`, the activity change, negative = inhibition is inactive: -5.05%.
On to `COc1cccc(C(=O)NCC2(N3CCCCC3)CCCCC2)c1`, for which the activity change, negative = inhibition was inactive: -14.7%.
The figure for `O=C(NCC1(N2CCCCC2)CCCCC1)c1cccc(Cl)c1` is inactive: 2.18%; for `CN(C)C1(CNC(=O)c2ccc(Br)cc2)CCCCC1` it is inactive: -8.74%; for `COc1cc(C(=O)NCC2(N(C)C)CCCCC2)c([N+](=O)[O-])cc1OC` it is inactive: -3.19%.
The figure for `O=C(NCC1(N2CCCCC2)CCCCC1)c1cc(F)c(F)cc1Cl` is inactive: -24.2%; for `C=CCN1CCN(CCOC(=O)C(O)(c2ccccc2)c2ccccc2)CC1` it is inactive: -5.9%.
The figure for `O=C(NCC1(N2CCCCC2)CCCCC1)c1cccc(Br)c1` is inactive: -12.9%.
Turning to `Cc1cc(C(=O)NCC2(N3CCCCC3)CCCCC2)ccc1[N+](=O)[O-]`, the activity change, negative = inhibition is inactive: -11.4%.
Next, `CCN1CCCC(OC(=O)C2(O)c3ccccc3C=Cc3ccccc32)C1` (stereo unspecified): inactive: -4.16%.
The figure for `CCOc1cccc(C(=O)NCC2(N(C)C)CCCCC2)c1` is inactive: 3.84%; for `COc1ccc(C(=O)NCC2(N(C)C)CCCCC2)cc1` it is inactive: -3.85%; for `CN(C)C1CCCC1OC(=O)C(O)(c1ccccc1)c1ccccc1` (stereo unspecified) it is inactive: -16.2%.
Next, `CN(C)c1ccc(C(=O)NCC2(N(C)C)CCCCC2)cc1`: inactive: 0.571%.
For the molecule `CN(C)C1(CNC(=O)c2ccccc2[N+](=O)[O-])CCCCC1`, the activity change, negative = inhibition was inactive: 0.731%.
Next, `Cc1ccccc1C(=O)NCC1(N2CCCCC2)CCCCC1`: inactive: -4.6%; `CCCCOc1ccccc1C(=O)NCC1(N(C)C)CCCCC1`: inactive: -10.9%.
As to `CC(C)N1C(=O)CC2(CCN(CCOC(=O)C(O)(c3ccccc3)c3ccccc3)CC2)C1=O`, the activity change, negative = inhibition was inactive: -17.1%.
Next, `COc1cc(SC)ccc1C(=O)NCC1(N(C)C)CCCCC1`: inactive: -4.45%; `CCN(CC)CC(C)C(C)OC(=O)C(O)(c1ccccc1)c1ccccc1` (stereo unspecified): inactive: -1.53%; `CN(C)C1(CNC(=O)c2cccc(Cl)c2)CCCCC1`: inactive: 1.93%.
`CN(C)C1(CNC(=O)c2ccccc2F)CCCCC1`: the activity change, negative = inhibition is inactive: -10.4%.
For the molecule `Cc1ccc(C(=O)NCC2(N3CCCCC3)CCCCC2)cc1`, the activity change, negative = inhibition is inactive: 17.3%.
Next, `O=C(NCC1(N2CCCCC2)CCCCC1)c1cc([N+](=O)[O-])ccc1Cl`: inactive: -20.9%; `CN1[C@@H]2CC[C@H]1CC(OC(=O)C(O)(c1ccccc1)c1ccccc1)C2` (stereo partly specified): inactive: 0.114%.
